Amino acid sequences for entries named in this document (tags omitted).
UniProt O08725, whole entry: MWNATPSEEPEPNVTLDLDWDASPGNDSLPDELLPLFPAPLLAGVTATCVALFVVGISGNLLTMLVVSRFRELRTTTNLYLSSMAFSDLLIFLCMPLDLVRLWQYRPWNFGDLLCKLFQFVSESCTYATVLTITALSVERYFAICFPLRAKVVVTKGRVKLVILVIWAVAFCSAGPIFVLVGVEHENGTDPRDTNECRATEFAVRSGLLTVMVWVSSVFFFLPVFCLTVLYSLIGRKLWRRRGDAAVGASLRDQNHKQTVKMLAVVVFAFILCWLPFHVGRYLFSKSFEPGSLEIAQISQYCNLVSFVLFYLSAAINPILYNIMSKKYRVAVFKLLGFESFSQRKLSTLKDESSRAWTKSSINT

According to patent US20080293818A1, “Regulator of Physiological Function of Ghrelin and Use Thereof” (priority 2004, published 2008):

Molecular target: T1, rat GHS-R (ghrelin receptor) (Rattus norvegicus, UniProt O08725)
T1 construct: expressed in transfected cells
Test: Calcium mobilization assay of ghrelin in CHO-GHSR 62 cells
Assay type: cell-based
Method: Before the assay, CHO-GHSR 62 cells [D1] stably expressing rat GHS-R (ghrelin receptor) were plated for 12-15 hours in flat-bottom, black-walled 96-well plates (Corning Costar Corporation, Cambridge, Mass.) at 4×10^4 cells/well. Cells were then preincubated for 1 hour with 4 μM Flo-4-AM-fluorescent indicator dye (Molecular Probes, Inc., Eugene, Oreg.) dissolved in assay buffer (Hanks' balanced salts solution (HBSS), 10 mM HEPES, 2.5 mM probenecid) supplemented with 1% fetal calf serum (FCS). After washing four times with assay buffer, samples, each dissolved in 100 μl basic buffer with 0.01% bovine serum albumin, were added to the prepared cells. Changes in the intracellular calcium concentration were measured using a FLEX station (Molecular Devices, Sunnyvale, Calif.).
Using the ghrelin calcium-mobilization assay, the activity of n-heptanoyl ghrelin to stimulate GHS-R (ghrelin receptor) activity was examined.
Time courses of fluorescence changes induced by n-octanoyl ghrelin (closed circle), n-heptanoyl ghrelin (open circle), and n-hexanoyl ghrelin (closed triangle) in GHS-R-expressing cells are shown. Peptides (1×10^−8 M) were added at the time indicated by the arrow.

[1] = peptides 1×10^−8 M, GHS-R-expressing cells

n-heptanoyl ghrelin
[Ca2+]i response in GHS-R-expressing cells (peptide 1×10^−8 M): induced [Ca^2+]i increases | agonistic activity for GHS-R (AUC) relative to n-hexanoyl ghrelin [1]: three times higher | agonistic activity for GHS-R calculated from AUC of the response curve, relative to n-octanoyl ghrelin [1]: approximately 60%
